This assay concerns the target Delta-type opioid receptor (Homo sapiens, UniProt P41143). Put plainly: ChEBML_146440.

The chains behind the UniProt entries cited, without tags or fusion partners.
UniProt P41143, whole entry, looked up: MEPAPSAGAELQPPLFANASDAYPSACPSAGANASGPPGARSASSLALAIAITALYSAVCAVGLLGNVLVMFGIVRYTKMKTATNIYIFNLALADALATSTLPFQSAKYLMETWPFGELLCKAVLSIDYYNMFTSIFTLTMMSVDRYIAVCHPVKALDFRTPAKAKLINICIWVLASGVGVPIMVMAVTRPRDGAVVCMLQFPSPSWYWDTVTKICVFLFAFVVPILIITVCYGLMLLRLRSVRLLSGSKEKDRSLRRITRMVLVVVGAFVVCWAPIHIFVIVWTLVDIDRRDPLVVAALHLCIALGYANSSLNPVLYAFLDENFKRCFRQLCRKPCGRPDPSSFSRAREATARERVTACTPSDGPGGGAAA

Compound `CN(C(=O)Cc1ccc(Cl)c(Cl)c1)[C@@H]1CCCC[C@H]1N1CCCC1` displayed a Ki of over 10 µM.

One may read the Ki as the equilibrium dissociation constant of an inhibitor or competing ligand from its target. A lower Ki goes with a stronger hold on the target.
